This is an account of results in patent US20240342161A1, “BISBENZYLISOQUINOLINES AS CONDITIONING AGENTS FOR IMMUNE THERAPY” (priority 2023, published 2024).

Chains of the proteins cited; added tags and fusions are not shown. Lines headed by an entry give the natural chain unless they say otherwise; changes in a name come on top.
UniProt Q13555: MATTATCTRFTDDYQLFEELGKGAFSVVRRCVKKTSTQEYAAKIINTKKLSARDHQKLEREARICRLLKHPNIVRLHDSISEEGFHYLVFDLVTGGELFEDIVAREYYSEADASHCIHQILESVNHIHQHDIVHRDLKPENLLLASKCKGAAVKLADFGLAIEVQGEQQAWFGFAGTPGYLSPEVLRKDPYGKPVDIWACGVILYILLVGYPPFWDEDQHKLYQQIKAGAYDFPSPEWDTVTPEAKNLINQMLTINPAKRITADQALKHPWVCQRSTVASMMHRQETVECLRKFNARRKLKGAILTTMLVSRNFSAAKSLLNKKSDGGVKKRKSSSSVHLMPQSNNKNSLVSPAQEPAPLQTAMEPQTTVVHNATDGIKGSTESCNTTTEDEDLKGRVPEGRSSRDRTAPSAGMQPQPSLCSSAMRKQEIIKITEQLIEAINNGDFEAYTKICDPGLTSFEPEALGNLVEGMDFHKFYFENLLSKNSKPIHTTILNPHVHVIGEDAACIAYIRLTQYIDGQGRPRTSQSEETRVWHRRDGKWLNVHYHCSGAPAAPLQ

This assay concerns the target CAMKII gamma (Homo sapiens, UniProt Q13555). The experiment in a line: CAMKII gamma kinase activity (ADP Glo). To be noted: for units: duplicate reactions. For orientation: ADP-Glo first removes unused ATP, then detects ADP through luciferase.

Where “and” joins values, the source holds several entries; their conditions need not be identical. Equal values may be shown once.

In turn, `CN[C@@H]1C[C@H]2O[C@@](C)([C@@H]1OC)n1c3ccccc3c3c4c(c5c6ccccc6n2c5c31)C(=O)NC4` [Staurosporin, reference compound] registered a mean (10 uM ATP, inhibitor 10 nM) of 0.915; a mean (10 uM ATP, inhibitor 100 nM) of 0.2; a mean (50 uM ATP, inhibitor 10 nM) of 7.285; a mean (50 uM ATP, inhibitor 100 nM) of 0.635. For the same compound, the units was 0.93 units and 0.9 units (10 uM ATP, inhibitor 10 nM); 0.25 units and 0.15 units (10 uM ATP, inhibitor 100 nM); 0.67 units and 0.6 units (50 uM ATP, inhibitor 100 nM).
